We go through one molecule from US20220117973A1, “THE ATR KINASE INHIBITOR BAY1895344 FOR USE IN THE TREATMENT OF A HYPER-PROLIFERATIVE DISEASE” (Bayer Aktiengesellschaft, priority 2019, published 2022).

“And” between values parts separate entries of the source, which are not always exact repeats. Equal values may be shown once.

The test deals with advanced metastatic solid tumors. Particulars: human, in vivo.

Take `C[C@@H]1COCCN1c1cc(-c2ccnn2C)c2ccnc(-c3ccn[nH]3)c2n1` [BAY 1895344, 2-[(3R)-3-methylmorpholin-4-yl]-4-(1-methyl-1H-pyrazol-5-yl)-8-(1H-pyrazol-5-yl)-1,7-naphthyridine]: the “median treatment duration of the 4 responders” value stood at 347 days; the objective responders/patients is 1/8 and 1/3 and 2/2; the “objective response rate (ORR)” value turned out to be 30.7%; the “partial responses (PRs)” value is 7. Besides, the “patients with SD≥4 m” value is 25, the “patients with durable SD (SD≥4 m)” value worked out at 22 patients, the “patients with durable SD≥4 m” value is given as 3 patients and the “reduction of the tumor size in one patient with stable disease” value is recorded as −11%. For the same molecule, the “responders (CR, PR or SD≥4 m)” value was 5; the “responders (PR and SD≥4 m)” value amounted to 32; the “responders with SD≥4 m” value was determined as 1; the “response (PR or SD≥4 m)” value is given as “did not experience any type of response”.
